Assay results: PubChem BioAssay AID560 (The Scripps Research Institute Molecular Screening Center, 2006)
This is a selection; strong and weak results do not stand in their true shares. Activity calls are given as the source filed them.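 Rule for the calls: active = activation above the mean of all tested compounds plus 3 SD (cut at about 49% in these data); inactive = the rest.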

By UniProt entry, the sequences of proteins in these tests, tags left out.
UniProt P35398, whole entry: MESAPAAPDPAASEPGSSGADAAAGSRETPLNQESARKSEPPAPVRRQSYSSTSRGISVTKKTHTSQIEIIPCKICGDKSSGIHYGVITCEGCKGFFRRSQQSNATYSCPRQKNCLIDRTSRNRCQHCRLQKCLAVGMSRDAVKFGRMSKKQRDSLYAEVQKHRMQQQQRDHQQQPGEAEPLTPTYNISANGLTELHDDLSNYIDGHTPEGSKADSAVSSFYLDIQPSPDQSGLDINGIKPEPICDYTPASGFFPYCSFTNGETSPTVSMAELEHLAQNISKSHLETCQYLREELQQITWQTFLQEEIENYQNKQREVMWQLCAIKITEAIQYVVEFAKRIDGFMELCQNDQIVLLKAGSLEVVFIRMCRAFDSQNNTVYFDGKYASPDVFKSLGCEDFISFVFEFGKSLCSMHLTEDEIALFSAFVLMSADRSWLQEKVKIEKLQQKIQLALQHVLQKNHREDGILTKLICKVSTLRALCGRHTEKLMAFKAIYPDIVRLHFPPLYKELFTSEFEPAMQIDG

Target: Nuclear receptor ROR-alpha (Homo sapiens) (UniProt P35398)
Experiment: activators of orphan receptor RORA, primary screen, cell-based, luminescence (AID 560);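 note: 0% = DMSO-treated RORA cells and 100% = added signal equal to DMSO minus mock-transfected cells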
Settings: CHO-K1 Gal4-RORA LBD luciferase reporter, at 10 µM, stronger effect = higher value, percent increase over mock-subtracted basal signal

| Compound | activation |
| --- | --- |
| CP(=O)(Nc1ccc2c(c1)OCCO2)Oc1ccccc1 (stereo unspecified) | inactive: 17.9% |
